Bioassay records from PubChem BioAssay.
ALDH1A1 inh – ALDH1A1 (human) enzyme inhibition; P00352; Purified ALDH1A1, NADH fluorescence, propionaldehyde substrate; Potency, µM (doses to about 75.3 µM), for the others: at the highest dose activity, negative = inhibition, hits mostly inhibitors; hit rate 7.3% among 220,000; AID 1030; active = well fitted inhibition curve with a large enough effect, not every such curve was filed as active; inconclusive = small, poorly fitted or top-dose-only effect, or another doubt; inactive = no such curve, though single readings can be large or run the other way;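 also: potency is read from the fitted curve at half-maximal effect; plate controls were no enzyme wells and a reference inhibitor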
G9a block – blocks human histone lysine methyltransferase G9a. hit rate 8.8% among 350,000. Q96KQ7. Potency, µM (titrated, usually from 102 µM), without a hit: at the top dose activity, negative = inhibition, hits mostly inhibitors. AID 504332. G9a H3K9 monomethylation, AlphaScreen, 2 h; also: potency is read from the fitted curve at half-maximal effect; % is scaled to controls: 0 for no effect and ±100 for the full control effect; nearly all actives have a fitted effect of over 75% in size
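Compounds were preincubated with 20 nM G9a for 15 min, after which biotinylated H3K9 peptide (500 nM) and SAM (20 uM) started a 2 h room-temperature reaction. Monomethylated product was quantified by antibody-based AlphaScreen chemiluminescence.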
KDM4E inh – blocks human JMJD2E demethylase activity. Potency, µM (titrated, usually from 57.1 µM), without a hit: at the highest dose activity change, negative = inhibition, most hits filed as inhibitors. B2RXH2. hit rate 1.6% among 230,000. JMJD2E catalytic domain, FDH-coupled NADH fluorescence (FDH is formaldehyde dehydrogenase);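 also: potency is read from the fitted curve at half-maximal effect; 0% = wells with enzyme and -100% = buffer wells without enzyme; nearly all actives have a fitted effect of over 50% in size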
miR-21 reporter – raises the signal of a miR-21 reporter. HeLa miR-21 FLuc reporter, luciferase, 48 h. 340,000 tested, under 10 active. Potency, µM (highest dose often 38.3 µM), for the others: at the highest dose reporter change, positive = more light; active = well fitted rising curve with a large enough effect; inconclusive = small, poorly fitted or top-dose-only effect; inactive = no such curve, though single readings can be large or run the other way;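 note: % of control where 0% means no effect; miR-21 action dims this reporter so a rising signal means less miR-21 action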
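Using DMEM plus 10% FBS, HeLa miR-21-FLuc cells are incubated with test compounds (final up to about 40uM) for 48 hours; firefly luciferase signal is then imaged following reagent-mediated lysis.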
Lamin A splicing – changes lamin A minigene splicing in HeLa cells | AID 1487 | HeLa LMNA splicing GFP/RFP minigene ratio, 48 h | hit rate 0.01% among 200,000 | Potency, µM (titrated, usually from 46.1 µM), without a hit: top-dose ratio change, negative = inhibition, actives largely listed as inhibitors; active = well fitted inhibition curve with a large enough effect in the signal ratio, with a control signal flat, not every such curve was filed as active; inconclusive = small, poorly fitted or top-dose-only effect, or effect the other way, or a change in a side signal; the % refers to the signal ratio; also: potency is read from the fitted curve at half-maximal effect; % is scaled to controls: 0 for no effect and ±100 for the full control effect
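S3 HeLa cells stably expressing lamin A-EGFP splicing minigene plus DsRed2, 600 cells/well, 48 h compound exposure at 37C. Laser-scanning cytometry; analysed as GFP (500-530 nm)/RFP (575-640 nm) total intensity ratio; 0.5% DMSO vehicle.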
Sfp PPTase inh – qHTS Assay for Inhibitors of Bacillus subtilis Sfp phosphopantetheinyl transferase (PPTase) | 4'-phosphopantetheinyl transferase ffp (Bacillus subtilis), Q9F4F7 | AID 1490, 2009 | actives 3.5% (n = 310,000) | Biochemical Sfp PPTase activity, qHTS | Potency, µM, for inactives: max response, negative = inhibition, most hits filed as inhibitors; active = well fitted inhibition curve with a large enough effect; inconclusive = small, poorly fitted or top-dose-only effect, or another doubt; inactive = no such curve, though single readings can be large or run the other way;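 also: the enzyme is Sfp with the accession as filed and its product quenches rhodamine fluorescence; potency is read from the fitted curve at half-maximal effect; 0% = enzyme reaction without inhibitor and -100% = no enzyme wells; top concentration of the series not given in the record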
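After 15 min at room temperature with compound, 15 nM Sfp received 5 uM rhodamine-CoA plus 12.5 uM BHQ-2-ybbR (50 mM Hepes pH 7.6, 10 mM MgCl2). Rate came from the fluorescence difference over 30 min, ex 525/em 598 nm.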
* marks the source's active call; other numbers are inactive results; ? = inconclusive; . = not tested or not shown; [ ] = dose if it differs, or a comment. An excerpt weighted towards active compounds, which were near 13% of everything screened. Unless noted, calls follow the shape of the dose curve; as a rule, active = well fitted curve in the direction sought with a large enough effect; inconclusive = small, poorly fitted or top-dose-only effect, or another doubt; inactive = no such curve, though single readings can be large; an effect the other way counts as inactive or inconclusive.

SMILES	ALDH1A1 inh	G9a block	KDM4E inh	miR-21 reporter	Lamin A splicing	Sfp PPTase inh
Cc1ccsc1C1C=C(c2cccc(Br)c2)Nc2ncnn21 (stereo not drawn)	-7%	10µM*	13%	-12%	?	45µM*
Cc1ccc(C2C=C(c3ccc4c(c3)OCO4)Nc3ncnn32)cc1 (stereo not drawn)	?	?	?	-8%	4%	-19%
Cn1nc(-c2ccc(OCC(=O)Nc3cccc(C(F)(F)F)c3)cc2)c2ccccc2c1=O	.	4%[59 µM]	.	13%	.	.
Oc1ccccc1CNc1ccc(OC(F)(F)F)cc1	12%	.	-9%	-22%	.	19%
COc1ccc(NC(=O)C2CCCN(C(=O)Nc3ccc(F)cc3)C2)cc1OC (stereo not drawn)	.	-14%	.	10%	.	9%
CCC1CCCCN1CCCNC(=O)Cn1ncn2nc(-c3ccc(OC)cc3)cc2c1=O (stereo not drawn)	.	-45%	.	-19%	.	6%
COc1ccc(C2=CC(c3ccc(F)cc3)n3nnnc3N2)cc1 (stereo not drawn)	-11%	1%[59 µM]	?	-14%	-11%	-11%
COc1ccc(C2=CC(c3sccc3C)n3nnnc3N2)cc1 (stereo not drawn)	2µM*	.	?	-44%	-1%	50µM*
CC(=O)c1c(C)[nH]c(C(=O)CSc2nnc(-c3ccc(Cl)cc3)n2CC2CCCO2)c1C (stereo not drawn)	-13%	50µM*	2%	12%	4%	10%
CCC(=O)Nc1ccc(C(=O)CSc2nnc(-c3ccc(O)cc3)n2CC2CCCO2)cc1 (stereo not drawn)	25µM*	45µM*	1%	-6%	6%	79µM*

Overlap with the part before: two compounds; new compounds follow.
SMILES	ALDH1A1 inh	G9a block	KDM4E inh	miR-21 reporter	Lamin A splicing	Sfp PPTase inh
CC(=O)c1c(C)[nH]c(C(=O)CSc2nnc(-c3ccc(Cl)cc3)n2CC2CCCO2)c1C (stereo not drawn)	-13%	50µM*	2%	12%	4%	10%
CCC(=O)Nc1ccc(C(=O)CSc2nnc(-c3ccc(O)cc3)n2CC2CCCO2)cc1 (stereo not drawn)	25µM*	45µM*	1%	-6%	6%	79µM*
Cc1ccc(-c2nnc(SCC(=O)NCC3CCCO3)n2C)cc1 (stereo not drawn)	3%	-42%[59 µM]	0%	1%	-9%	3%
CCSc1nnc(-c2ccc(S(=O)(=O)N3CCOCC3)cc2)n1CC1CCCO1 (stereo not drawn)	?	-20%[59 µM]	?	-31%	-8%	19%
CCC(=O)Nc1ccc(-c2nnc(SCC(=O)NCC3CCCO3)n2C)cc1 (stereo not drawn)	5%	8.9µM*	-8%	0%	-9%	11%
O=C(CSc1nnc(-c2ccc(S(=O)(=O)N3CCCC3)cc2)n1CC1CCCO1)NC1CC1 (stereo not drawn)	?	50µM*	-24%	-1%	-9%	-1%
CCOc1cc(C#N)c(NC(=O)Cn2nnc(-c3ccc(C)cc3)n2)cc1OCC	.	5%[59 µM]	.	-1%	.	.
Cc1ccc(C)c(N2CCN(C(=O)Cn3ncc4c(=O)oc5ccccc5c43)CC2)c1	.	?	.	-1%	.	.
CC1CCCC(C)N1C(=O)COC(=O)c1cc(Br)ccc1Cl (stereo not drawn)	20µM*	29%[12.7 µM]	-5%	-2%	.	11%
CCC1CCCCN1C(=O)COC(=O)c1cc(Br)ccc1Cl (stereo not drawn)	?	-5%	0%	0%	.	10%
COc1ccc(/C=C/C(=O)Nc2nc(-c3cccs3)ns2)cc1OC	.	7%[59 µM]	.	20%	?	.
CCOC(=O)NC(O)C(=O)c1ccc(F)cc1 (stereo not drawn)	22µM*	?	8%	1%	.	11%
c1ccc(Nc2nn[nH]n2)cc1	1%	20%	0%	-3%	?	-29%
Brc1ccc(N/N=C(/N=Nc2nn[nH]n2)c2ccccc2)cc1	14µM*	11µM*	25µM*	?	?	-96%
O=C(NC(Cc1ccccc1)C(=O)N1CCN(c2ccccn2)CC1)c1ccco1 (stereo not drawn)	-10%	14%[59 µM]	?	0%	2%	22%
CC(=O)NC(Cc1ccccc1)C(=O)N1CCN(C(=O)c2ccco2)CC1 (stereo not drawn)	10µM*	-15%[12.7 µM]	-2%	-1%	-2%	11%
O=C(c1ccco1)N1CCN(C(=O)C(Cc2ccccc2)NS(=O)(=O)c2cccs2)CC1 (stereo not drawn)	14µM*	?	-9%	1%	7%	-16%
COc1cc(C(=O)N2CCN(C(=O)c3cc(-c4ccccc4)n[nH]3)CC2)cc(OC)c1OC	.	-7%[59 µM]	.	-2%	.	9%
CCCN(C(=O)CCSc1ccc(F)cc1)c1c(N)n(Cc2ccccc2)c(=O)[nH]c1=O	.	.	.	-7%	.	5%
COc1cc(C(=O)N2C(=O)CCC2=O)cc(OC)c1OC	.	35µM*	.	1%	.	1%
COc1cc(C(=O)N2CCNCC2)cc(OC)c1OC	.	.	.	-6%	.	2%
COc1ccc(C(=O)N2CCN(C(=O)c3cc(OC)c(OC)c(OC)c3)CC2)cc1	14µM*	-14%[59 µM]	0%	-1%	-9%	27%
COC(=O)c1ccc(NC(=O)C2CCN(C(=O)c3cc(OC)c(OC)c(OC)c3)CC2)cc1	-9%	10µM*	1%	1%	19%	2%
CN(C)CCN(C(=O)c1ccc(S(=O)(=O)N(C)c2ccccc2)cc1)c1nc2cc3c(cc2s1)OCO3	.	35µM*	.	-20%	.	-14%
CN(C)CCN(C(=O)c1ccc(S(=O)(=O)N(C)c2ccccc2)cc1)c1nc2ccc(Cl)cc2s1	.	.	.	-31%	.	0%
Fc1ccc2nc(Nc3nc4cc5c(cc4s3)OCO5)sc2c1	?	4%[59 µM]	324%	-67%	-4%	-6%
CN(C)CCN(C(=O)c1ccc(C(=O)c2ccccc2)cc1)c1nc2cc3c(cc2s1)OCCO3	.	.	.	-36%	.	?
Cc1nc2c(ccc3nc(NC(=O)c4ccc5c(c4)OCCO5)sc32)s1	?	28µM*	?	15%	?	?
O=C(NNc1nc2cc3c(cc2s1)OCO3)c1ccc(F)cc1	?	8.9µM*	-7%	-49%	2%	28µM*
CN(C)CCN(C(=O)c1ccc(C(=O)c2ccccc2)cc1)c1nc2cc3c(cc2s1)OCO3	.	.	.	-15%	.	56µM*
Cc1nc2ccc3nc(NC(=O)c4ccc5c(c4)OCCO5)sc3c2s1	-1%	13%	?	-13%	13%	-1%
O=C(Nc1nc2cc3c(cc2s1)OCCO3)c1ccc(N2C(=O)CCC2=O)cc1	.	.	?	-19%	.	14µM*
CN(C)CCN(C(=O)c1ccc(N2C(=O)CCC2=O)cc1)c1nc2cc3c(cc2s1)OCCO3	28µM*	32µM*	-20%	-28%	17%[46 µM]	-13%
CCOC(=O)c1oc2ccccc2c1NC(=O)COc1cccc(OC)c1	?	32%[59 µM]	5µM*	1%	2%	18%
CC(=O)N1CCN(C(=O)c2oc3ccccc3c2C)CC1	.	40%	.	-2%	.	7%
COc1ccc(N2CCN(C(=O)c3oc4ccccc4c3NC(=O)Cc3cccc(OC)c3)CC2)cc1	.	40µM*	.	5%	.	9%

Rewritten with each value named: part of the list above
> CC(=O)N1CCN(C(=O)c2oc3ccccc3c2C)CC1
- ALDH1A1 inh: .
- G9a block: 40%
- KDM4E inh: .
- miR-21 reporter: -2%
- Lamin A splicing: .
- Sfp PPTase inh: 7%
> COc1ccc(N2CCN(C(=O)c3oc4ccccc4c3NC(=O)Cc3cccc(OC)c3)CC2)cc1
- ALDH1A1 inh: .
- G9a block: 40µM*
- KDM4E inh: .
- miR-21 reporter: 5%
- Lamin A splicing: .
- Sfp PPTase inh: 9%
